## Yeast mating assay B: variants of the scFv Ab-14

Source: Li et al. 2023 (doi:10.1038/s41467-023-39022-2), MIT Lincoln Laboratory and A-Alpha Bio; data file from the FLAb repository.

Target: peptide PDVDLGDISGINAS, taken from heptad repeat 2 (HR2) of SARS-CoV-2 spike.

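The parent was found by panning a naive human phage display library on the peptide. Designed CDR sequences, proposed from the first random library and measured here. Their group label is 14H_GPLM_Gibbs (GPLM: also part of the Gaussian process libraries; Gibbs: Gibbs sampling; a sequence that several methods proposed may carry one label only). The scFvs were displayed on barcoded MATa yeast, the peptide on MATalpha yeast. Binding brings cells together so that they mate, and sequencing counts the barcode pairs among the diploids. The ratio of observed to expected reads was calibrated, replicate by replicate, on BCL2-family standards whose Kd was known from biolayer interferometry. Each pool was mated in six replicate cultures.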

Parent: Ab-14, a human scFv built as VH, three GGGGS repeats, VL. Only the CDRs of the heavy chain vary.
VH: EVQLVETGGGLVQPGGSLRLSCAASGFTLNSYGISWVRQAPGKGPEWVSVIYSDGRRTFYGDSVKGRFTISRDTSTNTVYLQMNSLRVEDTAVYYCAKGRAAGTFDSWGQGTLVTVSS
VL: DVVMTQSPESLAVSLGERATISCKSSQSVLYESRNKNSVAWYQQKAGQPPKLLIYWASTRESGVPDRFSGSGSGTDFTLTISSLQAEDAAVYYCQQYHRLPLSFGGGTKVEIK

The parent's heavy chain CDRs are GFTLNSYGIS, VIYSDGRRTFYGDSVK, GRAAGTFDS; each variant's own CDRs replace them letter for letter.
Scale: log10 of Kd in nM, estimated from mating counts; low values are strong binders.
An entry "nd" has no value in the source: the pair was not observed among the diploids in that replicate. This suggests poor binding but is not conclusive.
The parent sequence was in this pool as ten entries: three were never detected, three once, and four in most replicates, with averages from 0.34 to 2.37.
The authors' rule: three or more of the six replicates give a measured affinity, fewer mean a poor binder.
Values of this round are not directly comparable with the first-round values of the same sequences.
Three control strains display no target. For all heavy chain designs, 1% of the pairings with them gave a signal, with a median of 2.08 and one signal in twenty below 0.84, so weak values seen in few replicates may be background. Also given: how often the same scFv was detected with the empty control strains, with their mean in brackets.

CDR-H1,CDR-H2,CDR-H3,log10 Kd (nM) by replicate,control signals
GFGLNDYGIS,VIYSDGRRTFYGDSVK,GRQAGTFDS,0.99 / 0.61 / 0.53 / 0.42 / 0.67 / 0.41,3/18 (2.66)
GFSLNWYGIS,VIYSDGRRTFYHDSVK,GRTAGTFDS,1.43 / nd / 1.78 / 1.38 / 1.98 / 1.86,1/18 (2.52)
GFTLNSYGIS,VIYSDGRRTFYADSVK,GQVAGTFDT,0.60 / 0.52 / 1.17 / 0.83 / 0.58 / 0.33,1/18 (4.16)
GFQLNSYGIS,VIYSDGRRTFYADSVK,GREAGTFDS,0.07 / 1.29 / nd / 2.23 / 0.70 / 0.32,0/18
GFDLNSYGIS,VIYSDGRRTFYIDSVK,GRLAGTFDS,nd / 1.72 / 0.73 / 0.37 / 0.98 / 3.91,1/18 (1.87)
GFDLNSYGIS,VIYSDGKRTFYGDSVK,GKTAGTFDS,0.14 / -0.10 / -0.08 / -0.09 / -0.17 / 0.05,1/18 (2.39)
GFELNSYGIS,VIYSDGKRTFYGDSVK,GKTAGTFDS,1.53 / 0.72 / 0.79 / 1.19 / 1.98 / 0.76,0/18
GFELNSYGIS,VIYSDGRRTFYGDSVK,GSAAGTFDD,nd / 2.02 / 1.66 / nd / 2.24 / nd,0/18
GFSLNDYGIS,VIYSDGRRTFYIDSVK,GNAAGTFDS,-0.53 / -0.60 / -0.56 / -0.76 / -0.61 / -0.30,0/18
GFDLNSYGIS,VIYSDGKRTFYGDSVK,GRTAGTFDS,-0.15 / 0.01 / -0.40 / -0.18 / -0.21 / -0.12,2/18 (2.43)
GFELNSYGIS,VIYSDGRRTFYGDSVK,GQEAGTFDS,-0.19 / -0.06 / 0.51 / 0.64 / -0.24 / 0.89,0/18
GFHLNSYGIS,VIYSDGRRTAYGDSVK,GRAAGTFDS,1.07 / 0.74 / 0.85 / 0.59 / -0.18 / 0.68,0/18
GFDLNSYGIS,VIYSDGRRTFYGDSVK,GKNAGTFDS,0.17 / 0.38 / 0.45 / -0.29 / 0.30 / 0.43,0/18
GFGLNSYGIS,VIYSDGRRTFYKDSVK,GKTAGTFDS,0.79 / -0.04 / 0.60 / 0.50 / 0.32 / 1.48,0/18
GFDLNSYGIS,VIYSDGRRTFYIDSVK,GREAGTFDS,0.12 / -0.50 / -0.41 / -0.36 / -0.13 / -0.06,0/18
GFVLNSYGIS,VIYSDGRRTFYIDSVK,GNAAGTFDS,nd / 1.33 / 0.81 / 1.67 / 0.91 / 2.53,0/18
GFSLNNYGIS,VIYSDGRRTFYVDSVK,GRQAGTFDS,nd / nd / -0.56 / nd / -0.55 / 0.24,0/18
GFNLNSYGIS,VIYSDGRRTFYDDSVK,GQAAGTFDS,0.96 / 0.69 / 0.85 / 1.42 / 0.53 / 0.91,1/18 (3.12)
GFVLNEYGIS,VIYSDGRRTFYHDSVK,GRAAGTFDS,nd / 0.85 / nd / 0.32 / -0.04 / 1.84,0/18
GFDLNSYGIS,VIYSDGRRTFYVDDVK,GNAAGTFDS,-0.13 / -0.11 / -0.06 / -0.18 / -0.22 / 0.08,2/18 (1.95)
GFSLNEYGIS,VIYSDGRRTFYGDSVK,GRMAGTFDG,0.80 / 0.22 / 0.64 / 0.52 / 0.51 / 0.89,0/18
GFDLNSYGIS,VIYSDGKRTFYADSVK,GQAAGTFDS,0.47 / 0.44 / 0.30 / 0.78 / 0.64 / 0.35,0/18
GFSLNSYGIS,VIYSDGRRTFYTDNVK,GNAAGTFDS,-0.03 / 0.08 / -0.15 / -0.19 / -0.09 / 0.15,0/18
GFSLNNYGIS,VIYSDGRRTYYGDSVK,GRAAGTFDS,0.51 / nd / nd / 0.11 / 1.73 / 1.16,1/18 (0.77)
GFSLNSYGIS,VIYSDGRRTFYSDSVK,GNVAGTFDS,-0.08 / 0.17 / -0.17 / -0.46 / -0.06 / -0.03,0/18
GFGLNEYGIS,VIYSDGRRTFYIDSVK,GRNAGTFDS,0.27 / 0.00 / -0.20 / -0.11 / 1.42 / 0.37,0/18
GFTLESYGIS,VIYSDGRRTFYGDAVK,GRTAGTFDS,0.11 / -0.12 / -0.65 / -0.05 / -0.08 / -0.06,0/18
GFDLNSYGIS,VIYSDGRRTFYIDSVK,GRMAGTFDS,0.10 / 0.18 / 0.75 / 0.19 / -0.36 / 0.40,1/18 (1.99)
GFDLNSYGIS,VIYSDGKRTFYADSVK,GRTAGTFDS,-0.30 / -0.81 / -0.50 / -0.69 / -0.67 / -0.38,0/18
GFTLESYGIS,VIYSDGRRTFYGDSVK,GQAAGTFDT,1.57 / 1.71 / 1.15 / 0.92 / 0.97 / 1.06,1/18 (2.72)
GFNLNSYGIS,VIYSDGRRTFYADSVK,GRLAGTFDS,1.28 / 1.46 / 1.22 / 0.46 / 1.26 / 0.56,1/18 (1.75)
GFTLNSYGIS,VIYSDGWRTFYSDSVK,GRVAGTFDS,0.42 / 0.84 / 1.07 / 0.68 / 1.18 / 0.88,1/18 (1.96)
GFTLNSYGIS,VIYSDGRRTFYSDSVK,GKLAGTFDT,0.74 / 0.90 / 0.65 / 0.65 / 0.67 / 0.80,0/18
GFSLNSYGIS,VIYSDGRRTFYSDDVK,GKAAGTFDS,-0.02 / 0.12 / 0.07 / -0.07 / 0.07 / -0.21,0/18
GFELNSYGIS,VIYSDGRRTFYVDSVK,GRVAGTFDS,nd / 0.86 / 1.31 / 0.80 / 0.95 / 1.45,0/18
GFNLNSYGIS,VIYSDGRRTAYGDSVK,GRTAGTFDS,-0.03 / -0.01 / -0.05 / -0.09 / 0.90 / nd,0/18
GFQLNSYGIS,VIYSDGRRTFYGDSVK,GRTAGTFDV,0.75 / 0.74 / 1.01 / 0.86 / 0.72 / 1.00,0/18
GFSLNSYGIS,VIYSDGRRTFYGDSVK,GWAAGTFDK,nd / nd / nd / nd / nd / nd,0/18
GFNLNSYGIS,VIYSDGRRTFYTDSVK,GNAAGTFDS,0.58 / 0.02 / 0.11 / 0.20 / 0.93 / 1.08,0/18
GFDLNSYGIS,VIYSDGRRTFYGDSVK,GHVAGTFDS,0.21 / -0.02 / 0.19 / -0.19 / 0.34 / 0.23,2/18 (2.75)
GFSLNSYGIS,VIYSDGRRTFYSDSVK,GKQAGTFDS,0.41 / 1.71 / nd / 3.50 / 1.01 / 1.08,0/18
GFSLNSYGIS,VIYSDGRRTFYGDSVK,GMNAGTFDS,0.27 / 0.26 / 0.04 / 0.02 / 0.00 / 0.54,1/18 (2.56)